# Test system: IL-12 (TYK2/JAK2) induced pSTAT4
# Assay: Phospho-STAT inhibition in lymphocytes, IL-12, mouse WT
# Assay type: cell-based, mouse (C57BL/6)
# Details: human vs mouse WT leukocytes
smiles,measurement,value
"C[C@@H]1CCN(C(=O)CC#N)C[C@@H]1N(C)c1ncnc2[nH]ccc12 [Tofacitinib, reference compound]",difference in IL-12-induced pSTAT4 potency across species,<two-fold difference

# Reference: PMC7265552 (Scientific Reports, 2020)
